# Molecular target: mTORC1 (Homo sapiens, UniProt P42345+P62942)
# Experiment: Inhibition assay for mTORC1: phosphorylation of pS6K at Thr389, AlphaLISA SureFire in PC3 cells
# Format: cell-based
# Conditions: 24 hours treatment, pS6K Thr389, analogs substituted at C40 and C16 (C16 diastereomer mixtures not isolated)
row,SMILES,pIC50 mTORC1
1,CO[C@@H]1C[C@H](C[C@@H](C)[C@@H]2CC(=O)[C@H](C)/C=C(\C)[C@@H](O)[C@@H](OC)C(=O)[C@H](C)C[C@H](C)/C=C/C=C/C=C(\C)C(OCC3CCOCC3)C[C@@H]3CC[C@@H](C)[C@@](O)(O3)C(=O)C(=O)N3CCCC[C@H]3C(=O)O2)CC[C@H]1OCCCO (stereo partly drawn),A (PIC50 for mTORC1 of >9.5 as A)
2,CO[C@@H]1C[C@H](C[C@@H](C)[C@@H]2CC(=O)[C@H](C)/C=C(\C)[C@@H](O)[C@@H](OC)C(=O)[C@H](C)C[C@H](C)/C=C/C=C/C=C(\C)C(OCCCO)C[C@@H]3CC[C@@H](C)[C@@](O)(O3)C(=O)C(=O)N3CCCC[C@H]3C(=O)O2)CC[C@H]1OCCCO (stereo partly drawn),A (PIC50 for mTORC1 of >9.5 as A)
3,CO[C@@H]1C[C@H](C[C@@H](C)[C@@H]2CC(=O)[C@H](C)/C=C(\C)[C@@H](O)[C@@H](OC)C(=O)[C@H](C)C[C@H](C)/C=C/C=C/C=C(\C)C(OCCc3ccccc3)C[C@@H]3CC[C@@H](C)[C@@](O)(O3)C(=O)C(=O)N3CCCC[C@H]3C(=O)O2)CC[C@H]1OC(=O)NCCOCCOCCOCCOCCO (stereo partly drawn),A (PIC50 for mTORC1 of >9.5 as A)

# Same assay, conditions: treated 24 hours, phosphorylation of pS6K at Thr389, Rapamycin analogs substituted at C40
row,pIC50 mTORC1,SMILES
1,A (PIC50 for mTORC1 of >9.5 as A),COC1CC2CCC(C)C(O)(O2)C(=O)C(=O)N2CCCCC2C(=O)OC(C(C)CC2CCC(OCCCN3CCCC(O)C3)C(OC)C2)CC(=O)C(C)C=C(C)C(O)C(OC)C(=O)C(C)CC(C)C=CC=CC=C1C (stereo not drawn)
2,A (PIC50 for mTORC1 of >9.5 as A),COC1CC2CCC(C)C(O)(O2)C(=O)C(=O)N2CCCCC2C(=O)OC(C(C)CC2CCC(OCCOCCOCCOCCO)C(OC)C2)CC(=O)C(C)C=C(C)C(O)C(OC)C(=O)C(C)CC(C)C=CC=CC=C1C (stereo not drawn)

row,SMILES,pIC50 mTORC1
1,COC1CC2CCC(C)C(O)(O2)C(=O)C(=O)N2CCCCC2C(=O)OC(C(C)CC2CCC(OC(=O)C(C)(CO)CO)C(OC)C2)CC(=O)C(C)C=C(C)C(O)C(OC)C(=O)C(C)CC(C)C=CC=CC=C1C (stereo not drawn),A (PIC50 for mTORC1 of >9.5 as A)
